How the values of the data set were obtained: The solubilization medium was: • SIF (simulated intestinal fluid, pH=6.8, prepared according to Ph. Eur.)
The dissolution medium was heated to 37° C. and the analyses were performed at this temperature. During the analyses, the salts were added in access to the solubilization media and left to mix for 24 h. Afterwards, the solutions were filtered, and the precipitates were investigated using ATR-IR analysis to confirm the presence of the starting material (e.g. respective Ca salt). Attenuated total reflection (ATR) is a sampling technique used in conjunction with infrared spectroscopy which enables samples to be examined directly in the solid or liquid state without further preparation. The filtered solutions were analysed for Ca^2+ ions content.

For the substance anhydrous calcium citrate, the “Ca^2+ ions” value is 0.460 mg/mL and the “Ca^2+ ions average” value amounted to 0.460 mg/mL.

The values above are taken from US20220241207A1, “EXTENDED-RELEASE SOLID ORAL DOSAGE FORM COMPRISING VITAMIN B12 AND A VITAMIN B12 DEPLETING DRUG” (DSM IP ASSETS B.V., priority 2019, published 2022).
